Measured values taken from ChEMBL document CHEMBL1147629, “Beyond U0126. Dianion chemistry leading to the rapid synthesis of a series of potent MEK inhibitors” (Bioorg Med Chem Lett, 2004).

Sequences of proteins named here, by UniProt entry; tags and fusion partners are left off.
UniProt Q02750, whole entry, looked up: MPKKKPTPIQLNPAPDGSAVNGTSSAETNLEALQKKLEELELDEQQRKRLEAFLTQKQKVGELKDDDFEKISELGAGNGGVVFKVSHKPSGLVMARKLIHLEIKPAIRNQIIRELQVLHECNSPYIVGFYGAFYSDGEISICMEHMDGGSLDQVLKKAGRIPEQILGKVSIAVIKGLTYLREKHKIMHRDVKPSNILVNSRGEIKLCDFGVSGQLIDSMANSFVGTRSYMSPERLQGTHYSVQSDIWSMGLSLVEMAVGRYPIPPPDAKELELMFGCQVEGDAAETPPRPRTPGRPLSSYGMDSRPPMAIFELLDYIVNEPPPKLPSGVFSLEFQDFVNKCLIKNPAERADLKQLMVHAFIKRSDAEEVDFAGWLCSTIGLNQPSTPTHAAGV

Target: Dual specificity mitogen-activated protein kinase kinase 1 (Homo sapiens, UniProt Q02750)

**Q.** How did the IC50 turn out when `N#C/C(=C(/N)Sc1ccccc1N)c1cccc(C(O)c2ccc(-c3nn[nH]n3)cc2)c1` (stereo unspecified) was run?
**A.** The IC50 was 35 nM.
